# Results: patent US20230159537A1, “COMPOUND, PREPARATION METHOD THEREOF, AND USE THEREOF IN PREPARATION OF ANTI-CANCER DRUG” (TIANJIN JIKUN MEDICAL TECHNOLOGY CO., LTD., priority 2020, published 2023)
# System: FGFR2 and downstream signaling pathway in SNU-16 cells
# Type: cell-based, human
compound,measurement,value
COc1cc(OC)cc(-c2nn(CCCCCN3CCN(C(=O)/C=C/C(F)(F)F)CC3)c3ncnc(N)c23)c1 [Compound 36],phosphorylation / activation of FGFR2 in SNU-16 cells,significantly inhibited; also recorded: inhibits the activation of FGFR2 and a downstream signaling pathway thereof

# “Also recorded” adds a separate entry of the source.
